Assay results published in patent US9989532B2, “Methods and compositions for detecting coagulation inhibitors” (The University of North Carolina at Chapel Hill, priority 2013, dated 2018).

Amino acid sequences for entries named in this document (tags omitted). Residues count along the entry.
UniProt P00742, 41-179 limits assumed: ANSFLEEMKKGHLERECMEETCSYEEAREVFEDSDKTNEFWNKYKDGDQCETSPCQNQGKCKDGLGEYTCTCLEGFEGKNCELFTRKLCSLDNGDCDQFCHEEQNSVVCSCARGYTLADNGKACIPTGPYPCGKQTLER
UniProt P00742, 235-488 limits assumed: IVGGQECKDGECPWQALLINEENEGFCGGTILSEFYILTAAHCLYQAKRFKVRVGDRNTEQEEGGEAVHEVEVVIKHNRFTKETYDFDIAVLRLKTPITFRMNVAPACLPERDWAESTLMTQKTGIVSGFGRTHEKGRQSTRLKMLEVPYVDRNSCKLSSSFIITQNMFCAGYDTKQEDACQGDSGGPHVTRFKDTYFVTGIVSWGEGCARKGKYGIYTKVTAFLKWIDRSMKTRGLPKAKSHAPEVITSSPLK

Key:
[1] = system: antithrombin/heparin; assay: inactivation by antithrombin in the presence of heparin; assay type: biochemical; conditions: thrombin or factor Xa in complex with a2M
Protocol: Varied concentrations of thrombin and factor Xa were titrated against a2M to determine the ratio of proteins that gave optimal incorporation. Thrombin or factor Xa were incubated with a2M for 2 hours at 37° C., Aliquots of the titrated mixtures were incubated with antithrombin in the presence of heparin.

[2] = system: mice; assay: saphenous vein injury bleeding time in mice; assay type: in vivo; conditions: FIG. 6; mouse, rivaroxaban 160 μg/kg followed by a2M-Xa 2.3 nmol/kg
Protocol: FIG. 6. In normal mice, an injury to the saphenous vein in the leg will stop bleeding in just over 1 minute. Administration of dabigatran to a normal mouse prolongs bleeding such that the same injury requires more than 2 minutes to stop bleeding. Administration of dabigatran followed by administration of a2M-IIa restores the normal bleeding time of a little over 1 minute. Similarly, administration of rivaroxaban to a normal mouse prolongs bleeding such that the same injury requires almost 2 minutes to stop bleeding. Administration of rivaroxaban followed by administration of a2M-Xa restores the normal bleeding time of about 1 minute.
Mice were administered 7 μg/kg dabigatran which was designed to produce a plasma level of 65 ng/mL (140 nM). Dabigatran concentration assumes complete recovery and 35% bound to plasma proteins (Stangier and Clemens. “Pharmacology, pharmacokinetics, and pharmacodynamics of dabigatran etexilate, an oral direct thrombin inhibitor” Clin Appl Thromb Hemost. 15 Suppl 1:9S-16S (2009) doi: 10.1177/1076029609343004). The peak plasma level of dabigatran in healthy human volunteers was 150 ng/mL (van Ryn et al. “Dabigatran etexilate—a novel, reversible, oral direct thrombin inhibitor: interpretation of coagulation assays and reversal of anticoagulant activity” Thromb Haemost. 103:1116-1127 (2010) doi:10.1160/TH09-11-0758). […]

[3] = molecular target: a2M-Xa (Homo sapiens, UniProt P00742); assay: substrate cleavage by a2M-Xa (factor Xa caged in alpha-2-macroglobulin); assay type: biochemical; set-up: Factor Xa was purchased from Enzyme Research Labs; host or cells: no expression host: complex formed in vitro from purchased factor Xa and a2M purified from human plasma, then purified on heparin Sepharose and Q-Sepharose; conditions: FIG. 2; no inhibitor
Protocol: Substrate cleavage in the presence of test sample is measured for all four test conditions.
There are any number of substrates for thrombin and factor Xa and other proteases as described herein that can be used in the methods of this invention. In some embodiments, the substrate is a chromogenic substrate, which can be a para-nitroanalide synthetic substrate. […]
0.5 mM of para-nitroanilide synthetic substrate (Pefachrome FXa) was added and the rate of substrate cleavage determined by appearance of yellow color characteristic of the cleaved substrate. […]
The rates of substrate cleavage were converted to concentrations using measured Km and kcat values determined as previously described (Joost et al. “Inhibition of human blood coagulation factor Xa by alpha-2-macroglobulin” Biochemistry 26:5932-5937 (1987) doi: 10.1021/bi00392a053) (FIGS. 1-5).

- activity of the purified complex (cleavage of synthetic substrate) [3]: active
Substance: a2M-Xa: factor Xa caged in alpha-2-macroglobulin
- inactivation by antithrombin/heparin [1]: protected from inactivation
- bleeding time after reversal [2]: about 1 minute
